Reference: patent US7053189B2 (Oregon Health & Sciences University, priority 1990, dated 2006)

Sequences of proteins named here, by UniProt entry; tags and fusion partners are left off. A line that says so, or that is headed by a name, gives the form on record, which may keep a tag or linker.
UniProt P21917, with tags, fused parts or gaps with the stated changes: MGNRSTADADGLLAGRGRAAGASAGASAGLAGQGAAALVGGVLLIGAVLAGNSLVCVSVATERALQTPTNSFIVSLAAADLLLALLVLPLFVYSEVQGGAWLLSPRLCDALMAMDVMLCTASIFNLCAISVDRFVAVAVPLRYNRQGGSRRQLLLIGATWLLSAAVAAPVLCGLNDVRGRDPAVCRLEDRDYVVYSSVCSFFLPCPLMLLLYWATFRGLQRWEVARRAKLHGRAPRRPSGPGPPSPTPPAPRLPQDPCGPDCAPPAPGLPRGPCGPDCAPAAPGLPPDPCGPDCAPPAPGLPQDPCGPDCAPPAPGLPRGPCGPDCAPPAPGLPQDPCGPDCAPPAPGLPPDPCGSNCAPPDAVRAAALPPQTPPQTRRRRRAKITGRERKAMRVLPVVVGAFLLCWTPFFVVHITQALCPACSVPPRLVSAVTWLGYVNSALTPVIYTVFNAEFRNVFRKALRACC
UniProt P21917, whole entry P18R/N396T: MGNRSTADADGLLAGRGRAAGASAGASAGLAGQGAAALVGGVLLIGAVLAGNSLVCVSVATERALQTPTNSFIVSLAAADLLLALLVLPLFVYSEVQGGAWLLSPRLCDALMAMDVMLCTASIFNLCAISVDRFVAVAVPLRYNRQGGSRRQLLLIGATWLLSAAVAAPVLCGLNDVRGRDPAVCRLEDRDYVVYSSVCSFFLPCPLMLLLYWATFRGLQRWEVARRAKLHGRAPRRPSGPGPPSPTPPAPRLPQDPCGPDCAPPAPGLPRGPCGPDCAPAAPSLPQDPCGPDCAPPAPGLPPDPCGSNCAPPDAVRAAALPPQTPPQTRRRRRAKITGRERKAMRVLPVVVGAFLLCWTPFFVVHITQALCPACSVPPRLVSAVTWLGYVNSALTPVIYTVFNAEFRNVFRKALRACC
UniProt P21917, with tags, fused parts or gaps P18R/DEL271-302/N396T: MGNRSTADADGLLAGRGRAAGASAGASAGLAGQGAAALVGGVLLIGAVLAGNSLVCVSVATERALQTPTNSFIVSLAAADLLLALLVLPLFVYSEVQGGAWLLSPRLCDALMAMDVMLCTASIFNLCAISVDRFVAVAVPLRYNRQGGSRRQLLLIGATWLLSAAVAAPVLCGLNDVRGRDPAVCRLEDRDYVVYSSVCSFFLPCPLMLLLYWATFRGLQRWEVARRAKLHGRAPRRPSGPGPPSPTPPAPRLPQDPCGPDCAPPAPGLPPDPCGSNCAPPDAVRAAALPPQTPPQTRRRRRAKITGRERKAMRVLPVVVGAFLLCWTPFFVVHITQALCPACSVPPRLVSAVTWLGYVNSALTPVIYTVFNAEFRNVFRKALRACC

Key:
[1] = biological target: human D4 dopamine receptor allele D4.7 (Homo sapiens, UniProt P21917, INS283GLPPDPCGPDCAPPAPGLPQDPCGPDCAPPAPGLPRGPCGPDCAPPAP/N396T/P18R/S284G); conditions: D4.7, presence of 120 mM sodium chloride
[2] = biological target: human D4 dopamine receptor allele D4.4 (Homo sapiens, UniProt P21917, N396T/P18R); conditions: D4.4, presence of 120 mM sodium chloride
[3] = biological target: human D4 dopamine receptor allele D4.2 (Homo sapiens, UniProt P21917, DEL271-302/N396T/P18R); conditions: D4.2, presence of 120 mM sodium chloride

O=C(CCCN1CCC2(CC1)C(=O)NCN2c1ccccc1)c1ccc(F)cc1 [[^3H]spiperone]
change of [3H]spiperone dissociation constant [1]: not for D4.7
change of [3H]spiperone dissociation constant [2]: increased approximately two- to three-fold
change of [3H]spiperone dissociation constant [3]: increased approximately two- to three-fold
